Source: ChEMBL document CHEMBL2375342, “Novel 5-(benzyloxy)pyridin-2(1H)-one derivatives as potent c-Met inhibitors” (Bioorg Med Chem Lett, 2013)

Key:
[1] = species on record: Homo sapiens; assay: Selectivity ratio of IC50 for ABL (unknown origin) to IC50 for c-MET (unknown origin)
[2] = species on record: Homo sapiens; assay: Selectivity ratio of IC50 for RON (unknown origin) to IC50 for c-MET (unknown origin)

`C[C@@H](Oc1c[nH]c(=O)c(C(=O)Nc2ccc(N3CCN(C)CC3)cc2)c1)c1c(Cl)ccc(F)c1Cl` showed a Ratio IC50 [1] of over 20 and a Ratio IC50 [2] of over 20.
